{"source": "patent US8278437B2", "about": "“Hydroxypropyl-sulfobutyl-beta-cyclodextrin, the preparation method, the analytical method, and the pharmacutical application thereof” (priority 2005, dated 2012)", "origin": "cited, not measured here", "test_system": "rat", "settings": "Oral; cited from earlier work", "data": [{"smiles": "O=C(OCc1ccccc1)c1ccccc1", "note": "[Benzyl benzoate]", "values": [{"measurement": "LD50", "result": 1700, "unit": "mg/kg"}]}]}
